Laboratory results: US5436254A, “Carbostyril derivatives” (Otsuka Pharmaceutical Company, Ltd., priority 1989, dated 1995)

System: increase of diastolic pressure caused by Arg-vasopressin
Assay: Anti-vasopressor activity in vivo (pith rat, increase of diastolic pressure by Arg-vasopressin)
Parameters: species or system male SD rat
Conditions: test compound intravenous, 3 minutes before Arg-vasopressin (30 mU/kg) intravenous

Row | SMILES | ED50 (dose required to reduce the increase of diastolic pressure caused by Arg-vasopressin to 50 % of its control value) [mg/kg]
1 | CC(=O)NCCCCCOc1ccc(C(=O)N2CCC(N3C(=O)CCc4ccccc43)CC2)cc1 | 0.8
2 | CC(=O)NCCCCOc1ccc(C(=O)N2CCC(N3C(=O)CCc4ccccc43)CC2)cc1 | 0.3
3 | CN(C)c1ccc(C(=O)N2CCC(N3C(=O)CCc4ccccc43)CC2)cc1 | 1.0
4 | CCOc1ccc(C(=O)N2CCC(N3C(=O)CCc4ccccc43)CC2)cc1 | 0.5
5 | COc1ccc(C(=O)N2CCC(N3C(=O)CCc4ccccc43)CC2)cc1 | 0.8
6 | CC(=O)NCCCOc1ccc(C(=O)N2CCC(N3C(=O)CCc4ccccc43)CC2)cc1 | 0.2
